Measurements reported in patent publication EP4831176A1, “BICYCLIC FUSED HETEROAROMATIC RING DERIVATIVE, AND PHARMACEUTICAL COMPOSITION AND USE THEREOF” (dated 2026).

How the values were obtained:
Pfeiffer cells = assay: Proliferation inhibition of Pfeiffer tumor cells, Cell Titer-Glo; conditions: read-out: CTG IC50, 144 hours incubation
From the text: In this experiment, Cell Titer-Glo reagent was used to quantitatively analyze the proliferation activity of Pfeiffer cells to detect the inhibitory ability of the compounds on tumor cell proliferation. The specific steps were as follows: • 1. Pfeiffer cells were purchased from Nanjing Cobioer (purchased from ATCC, Catalog No. #CRL2632), subcultured and maintained in logarithmic growth state using RPMI-1640 complete medium (containing 10% v/v fetal bovine serum) according to the supplier's recommended conditions. […] Before cell seeding, cells were collected in a centrifuge tube, centrifuged at 250 rcf for 3 minutes, and the culture medium was discarded. The cells were resuspended in fresh complete medium, and 20 µL of the cell suspension was taken to calculate the cell concentration using a Countstar cell counter. After adjusting the density, cells were seeded into a 384-well plate at 2,000 cells/45 µL and pre-incubated in a 37°C, 5% CO2 incubator for 4 hours. • 3. The negative and positive control groups were treated with 5 µL of control solution (non-complete medium containing 1% v/v DMSO). Compound gradient dilutions were prepared using non-complete medium, and 5 µL of the dilutions were added to the corresponding culture wells. The final concentration of DMSO in the test was 0.1% v/v. Subsequently, the plate was incubated in a 37°C, 5% CO2 incubator for 144 hours. • 4. 40 µL of Cell Titer-Glo reagent was added directly to the cell culture, and the plate was incubated at room temperature in the dark for 30 minutes. The luminescence value was then read on a plate reader, and the results were used to analyze the cell proliferation ratio and compound activity. • 5. The signal value of the negative control group was set as Bottom, and the signal value of the positive control group was set as Top. The compound concentration value (logarithm) was the X-axis, and the luminescence reading at the corresponding concentration was the Y-axis, with HillSlope as the slope factor. A four-parameter logistic model (4PL logistic model) was used for fitting, and the calculation method was as follows:Y = Bottom + (Top - Bottom) / (1 + 10^((Log IC50 - X) × HillSlope))
After fitting, the IC50 value of the compound was calculated, and the proliferation inhibitory activity of the compound was compared based on the IC50 value.

[1] = In vivo pharmacokinetic study in mice (LC/MS/MS of plasma); conditions: male ICR mice; for Drug elimination half-life T1/2 / Drug exposure AUC0-inf / Maximum drug concentration Cmax / Time to peak concentration Tmax: plasma, study IV 2 mg/kg and PO 10 mg/kg, route of this parameter not given; for Oral bioavailability F: IV 2 mg/kg, PO 10 mg/kg
From the text: LC/MS/MS method was used to determine the drug concentrations in mouse plasma at different time points after intravenous injection and oral gavage administration of the compounds of the present application. The pharmacokinetic behavior of the compounds of the present application in mice was studied to evaluate their pharmacokinetic characteristics.
1. Experimental protocol: Test animals: Healthy adult male ICR mice, weighing 25-40 g, 6 mice. All mice had free access to food and water. Supplied by Beijing Vital River Laboratory Animal Technology Co., Ltd. Minimum of 3 days adaptation period, SPF area room, indoor temperature maintained at 20-26°C, indoor relative humidity maintained at 40-70%. Illuminated with fluorescent lamps, 12-hour light (08:00-20:00) and 12-hour dark, 2-5 mice per cage (same administration group). Unlimited access to feed (irradiated sterilized, Shaanxi Qinle Pharmaceutical Chemical Co., Ltd., China) and water (tap water purified by ultrapure water filtration system).
2. Animal experiment formulation: • 2.1. 10% DMSO / 40% PEG400 / 5% Tween 80 / 45% saline • 2.1.1 Vehicle formulation preparation: N/A • 2.1.2 Administration formulation preparation: Intravenous injection group: an appropriate amount of API powder was accurately weighed, added to 10% of the final volume of DMSO, and shaken and sonicated to ensure complete dissolution. After dissolution, 40% of the formulation volume of PEG400 and 5% of the formulation volume of Tween 80 were added, followed by vortexing or sonication. Finally, 45% of the formulation volume of saline was added to obtain a clear, transparent solution at a concentration of 0.5 mg/mL. • 2.2 10% HP-β-CD and 50 mM Citrate buffer in water (pH 4.0) • 2.2.1 Vehicle formulation preparation: • 50 mM Citrate buffer solution (pH 4.0): 1.92 g of anhydrous citric acid was weighed and added to 100 mL of purified water, stirred to dissolve, yielding a 100 mM citric acid solution. Separately, 2.94 g of sodium citrate was weighed and added to 100 mL of water, yielding a 100 mM sodium citrate solution. 33 mL of the 100 mM citric acid solution was taken, mixed with 17 mL of the 100 mM sodium citrate solution, mixed well, and diluted to 100 mL to obtain 50 mM citrate buffer at pH 4.0. • 10% HP-β-CD (Hydroxypropyl-β-cyclodextrin) and 50 mM Citrate buffer (pH 4.0) solution: 10 g of hydroxypropyl-β-cyclodextrin was accurately weighed and added to 100 mL of 50 mM Citrate buffer (pH 4.0) aqueous solution, and sonicated to ensure complete dissolution. • 2.2.2 Administration formulation preparation: Oral gavage group: an appropriate amount of API powder was accurately weighed, added to the final volume of 10% HP-β-CD and 50 mM Citrate in water (pH 4.0) solution, and shaken and sonicated to ensure complete dissolution. The mixture was then disrupted using a cell disruptor for 1 minute to obtain a clear, transparent or suspended solution at a concentration of 1 mg/mL. 3. Administration method: before administration, animals meeting the experimental requirements were selected, weighed, and marked. ICR mice were administered 2 mg/kg via tail vein injection and 10 mg/kg via oral gavage. 4. Sample Collection: before sampling, mice were restrained. Blood was collected from each dosed mouse via the submandibular vein at predetermined time points (IV administration: 0.083h, 0.25h, 0.5h, 1h, 2h, 4h, 7h, 24h, 30h, and 48h post-dose, totaling 10 time points; Oral gavage administration: 0.083h, 0.25h, 0.5h, 1h, 2h, 4h, 7h, 24h, 30h, and 48h post-dose, totaling 10 time points), approximately 80 µL of blood was collected each time. The blood was transferred to a 1.5 mL tube pre-filled with K2EDTA, and centrifuged (Eppendorf, Centrifuge 5804R) for 3 min (10000 rpm, 4°C) to separate plasma. The entire process was completed within 15 minutes after blood collection. All samples were stored in a -20°C freezer (Panasonic) until sample analysis. 5. […]

Structure (SMILES) | IC50 (Pfeiffer cells) [nM] | Drug elimination half-life T1/2 [1] [h] | Drug exposure AUC0-inf [1] [µg·h/mL] | Maximum drug concentration Cmax [1] [µg/mL] | Time to peak concentration Tmax [1] [h] | Oral bioavailability F [1] [%]
Cn1nc(C2CCC(=O)NC2=O)c2ccc(N3CCC(CN4CCC(c5ncc(-c6cnc(NCc7c(F)ccc8c7CCO8)n7cnc(Cl)c67)cn5)CC4)CC3)cc21 (stereo not drawn) | 0.4 | 6.0 | 16.675 | 1.31 | 4.0 | 61.4
O=C1CCC(Nc2ccc(N3CCN(C4CCN(Cc5ncc(-c6cnc(NCc7c(F)ccc8c7CCO8)n7cnc(Cl)c67)cn5)CC4(F)F)CC3)c(F)c2)C(=O)N1 (stereo not drawn) | < 0.03 | 4.2 | 17.788 | 1.553 | 1.3 | 73.6
Cn1nc(C2CCC(=O)NC2=O)c2ccc(N3CCC(CN4CCC(n5cnc(-c6cnc(NCc7c(F)ccc8c7CCO8)n7cnc(Cl)c67)n5)CC4)CC3)cc21 (stereo not drawn) | < 0.03 | 4.5 | 19.631 | 1.37 | 5.3 | 71.6
Cn1nc(C2CCC(=O)NC2=O)c2ccc(N3CCC(CN4CCC(c5ccc(-c6cnc(NCc7c(F)ccc8c7CCO8)n7cnnc67)cc5)CC4)CC3)cc21 (stereo not drawn) | 0.2 | 12.3 | 11.332 | 0.445 | 7.0 | 34.2
Cn1nc(C2CCC(=O)NC2=O)c2ccc(N3CCC(CN4CCC(n5cc(-c6cnc(NCc7c(F)ccc8c7CCO8)n7cc(C#N)nc67)cn5)CC4)CC3)cc21 (stereo not drawn) | 1 | 5.7 | 8.559 | 0.548 | 7.0 | 24.0
Cc1nc(C2CCN(CC3CN(c4ccc5c(C6CCC(=O)NC6=O)nn(C)c5c4)C3)CC2)ccc1-c1cnc(NCc2c(F)ccc3c2CCO3)n2cnc(Cl)c12 (stereo not drawn) | 0.3 | 5.9 | 11.637 | 0.721 | 6.0 | 40.9
Cn1nc(C2CCC(=O)NC2=O)c2ccc(N3CCC(CN4CCC(c5ccc(-c6cnc(NCc7c(F)ccc8c7CCO8)n7cnc(F)c67)cc5)CC4)CC3)cc21 (stereo not drawn) | 4 | 13.4 | 13.748 | 0.491 | 7.0 | 46.6
Cn1nc(C2CCC(=O)NC2=O)c2ccc(N3CCC(CN4CCC(n5cc(-c6cnc(NCc7c(F)ccc8c7CCO8)n7cnc(Cl)c67)c(F)n5)CC4)CC3)cc21 (stereo not drawn) | 2 | 6.9 | 14.508 | 0.819 | 6.0 | 41.0
Cn1nc(C2CCC(=O)NC2=O)c2ccc(N3CCC(CN4CCC(c5ccc(-c6cnc(NCc7c(F)ccc8c7CCO8)n7cnc(Cl)c67)nc5)CC4)CC3)cc21 (stereo not drawn) | 0.7 | 6.8 | 18.218 | 1.25 | 5.0 | 23.7
Cn1nc(C2CCC(=O)NC2=O)c2ccc(N3CCC(CN4CCC(n5cc(-c6cnc(NCc7c(F)ccc8c7CCO8)n7cnnc67)cn5)CC4)CC3)cc21 (stereo not drawn) | 1.5 | 4.0 | 3.236 | 0.269 | 4.3 | 18.4
Cn1nc(C2CCC(=O)NC2=O)c2ccc(N3CCC(CN4CCC(c5cnc(-c6cnc(NCc7c(F)ccc8c7CCO8)n7cnc(Cl)c67)cn5)CC4)CC3)cc21 (stereo not drawn) | 1 | 5.1 | 12.456 | 0.808 | 6.0 | 51.4
Cn1nc(C2CCC(=O)NC2=O)c2ccc(N3CCC(CN4CCC(n5cc(-c6cnc(NCc7c(F)ccc8c7CCO8)n7cnc(Cl)c67)cn5)CC4)CC3)nc21 (stereo not drawn) | 0.4 | 4.0 | 13.258 | 0.909 | 7.0 | 38.8
Cc1nc(C2CCN(CC3CCN(c4ccc5c(C6CCC(=O)NC6=O)nn(C)c5c4)CC3)CC2)ccc1-c1cnc(NCc2c(F)ccc3c2CCO3)n2cnnc12 (stereo not drawn) | 0.7 | 6.6 | 0.203 | 0.02 | 2.7 | 1.3
